Assay results published in patent US11203574B2 (BioCryst Pharmaceuticals, Inc., priority 2014, dated 2021).

By UniProt entry, the sequences of proteins in these tests, tags left out.
UniProt P03952, whole entry, looked up: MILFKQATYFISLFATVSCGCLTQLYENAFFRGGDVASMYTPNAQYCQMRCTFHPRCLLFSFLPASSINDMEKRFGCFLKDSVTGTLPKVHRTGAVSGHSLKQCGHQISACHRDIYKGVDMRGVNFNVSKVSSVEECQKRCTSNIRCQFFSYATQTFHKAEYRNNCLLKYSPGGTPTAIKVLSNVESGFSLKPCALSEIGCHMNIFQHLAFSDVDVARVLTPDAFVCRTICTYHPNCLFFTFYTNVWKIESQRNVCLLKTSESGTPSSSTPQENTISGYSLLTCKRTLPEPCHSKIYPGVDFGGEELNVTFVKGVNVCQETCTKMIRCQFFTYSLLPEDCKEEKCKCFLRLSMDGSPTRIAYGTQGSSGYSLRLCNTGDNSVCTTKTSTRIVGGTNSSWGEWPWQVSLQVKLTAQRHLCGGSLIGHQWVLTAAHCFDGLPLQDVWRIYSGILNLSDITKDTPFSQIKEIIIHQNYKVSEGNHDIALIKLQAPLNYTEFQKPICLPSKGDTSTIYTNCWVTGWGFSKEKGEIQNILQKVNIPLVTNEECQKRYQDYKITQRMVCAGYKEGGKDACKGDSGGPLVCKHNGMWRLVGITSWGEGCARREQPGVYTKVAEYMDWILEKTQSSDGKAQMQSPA

Target: human plasma kallikrein (Homo sapiens (Human), UniProt P03952)
Experiment: Plasma kallikrein activity assay (chromogenic substrate S2302)
Format: biochemical
Conditions: 2 nM kallikrein, 80 μM S2302, 30° C., pH 7.8; Ki by Cheng-Prusoff equation; values given as ranges

Row | SMILES | Ki [nM]
1 | NCc1cccc(-n2nc(C(=O)O)cc2C(=O)Nc2cc(C(NCC3CC3)c3ccccc3)ccc2F)c1 (single isomer, unassigned; (+)) [246f, (+)-1-(3-(aminomethyl)phenyl)-5-(5-((cyclopropylmethylamino)(phenyl)methyl)-2-fluorophenylcarbamoyl)-1H-pyrazole-3-carboxylic acid] | 0.1 to 50
2 | N#Cc1cccc(C(NCC2CC2)c2ccc(F)c(NC(=O)c3cc(C(F)(F)F)nn3-c3ccc4ccnc(N)c4c3)c2)c1 (single isomer, unassigned; (+)) [257b, (+)-1-(1-aminoisoquinolin-7-yl)-N-(5-((3-cyanophenyl)(cyclopropylmethylamino)methyl)-2-fluorophenyl)-3-(trifluoromethyl)-1H-pyrazole-5-carboxamide] | 0.1 to 50
3 | NCc1cccc(-n2nc(C(N)=O)cc2C(=O)Nc2cc(C(NCC3CC3)c3ccccc3)ccc2F)c1 (single isomer, unassigned; (-)) [229i, (−)-1-(3-(aminomethyl)phenyl)-N5-(5-((cyclopropylmethylamino)(phenyl)-methyl)-2-fluorophenyl)-1H-pyrazole-3,5-dicarboxamide] | 0.1 to 50
4 | Nc1nccc2ccc(-n3nc(C(F)(F)F)cc3C(=O)Nc3cc(C(NCC4CC4)c4ccccc4)ccc3F)cc12 (single isomer, unassigned; (-)) [235g, (−)-1-(1-aminoisoquinolin-7-yl)-N-(5-((cyclopropylmethylamino)(phenyl)methyl)-2-fluorophenyl)-3-(trifluoromethyl)-1H-pyrazole-5-carboxamide] | 0.1 to 50
5 | NCc1cccc(-n2nc(C(F)(F)F)cc2C(=O)Nc2cccc(C(NCC3CC3)c3ccccc3)c2)c1 (stereo not shown) [41e, 1-(3-(Aminomethyl)phenyl)-N-(3-(((cyclopropylmethyl)amino)(phenyl)methyl)phenyl)-3-(trifluoromethyl)-1H-pyrazole-5-carboxamide] | 0.1 to 50
6 | NCc1cccc(-n2nc(C(F)(F)F)cc2C(=O)Nc2cc(C3CC3)cc(C(NCC3CC3)c3ccccc3)c2)c1 (stereo not shown) [95i, 1-(3-(aminomethyl)phenyl)-N-(3-cyclopropyl-5-((cyclopropylmethylamino)(phenyl)methyl)phenyl)-3-(trifluoromethyl)-1H-pyrazole-5-carboxamide] | 0.1 to 50
7 | NCc1cccc(-n2nc(C(F)(F)F)cc2C(=O)Nc2cccc(C(NCC3CC3)c3cccc(OCc4ccccc4)c3)c2)c1 (stereo not shown) [107f, 1-(3-(Aminomethyl)phenyl)-N-(3-((3-(benzyloxy)phenyl)(cyclopropylmethylamino)methyl)phenyl)-3-(trifluoromethyl)-1H-pyrazole-5-carboxamide] | 0.1 to 50
8 | NCc1cccc(C(NCC2CC2)c2cccc(NC(=O)c3cc(C(F)(F)F)nn3-c3cccc(CN)c3)c2)c1 (stereo not shown) [108e, 1-(3-(Aminomethyl)phenyl)-N-(3-((3-(aminomethyl)phenyl)(cyclopropylmethylamino)methyl)phenyl)-3-(trifluoromethyl)-1H-pyrazole-5-carboxamide] | 0.1 to 50
9 | COc1ccccc1C(NCC1CC1)c1cccc(NC(=O)c2cc(C(F)(F)F)nn2-c2cccc(CN)c2)c1 (stereo not shown) [119e, 1-(3-(aminomethyl)phenyl)-N-(3-(((cyclopropylmethyl)amino)(2-methoxyphenyl)methyl)phenyl)-3-(trifluoromethyl)-1H-pyrazole-5-carboxamide] | 0.1 to 50
10 | CC(C)c1ccc(C(NCC2CC2)c2cccc(NC(=O)c3cc(C(F)(F)F)nn3-c3cccc(CN)c3)c2)cc1 (stereo not shown) [120e, 1-(3-(aminomethyl)phenyl)-N-(3-(((cyclopropylmethyl)amino)(4-isopropylphenyl)methyl)phenyl)-3-(trifluoromethyl)-1H-pyrazole-5-carboxamide] | 0.1 to 50
11 | NCc1cccc(-n2nc(C(F)(F)F)cc2C(=O)Nc2cccc(C(NCC3CC3)c3ccc(OCc4ccccc4)cc3)c2)c1 (stereo not shown) [123g, 1-(3-(aminomethyl)phenyl)-N-(3-((4-(benzyloxy)phenyl)(cyclopropylmethylamino)methyl)phenyl)-3-(trifluoromethyl)-1H-pyrazole-5-carboxamide] | 0.1 to 50
12 | CN(C1CC1)C(c1ccc(CN)cc1)c1ccc(F)c(NC(=O)c2cc(C(F)(F)F)nn2-c2cccc(CN)c2)c1 (stereo not shown) [139b, 1-(3-(aminomethyl)phenyl)-N-(5-((4-(aminomethyl)phenyl)(cyclopropyl-methylamino)methyl)-2-fluorophenyl)-3-(trifluoromethyl)-1H-pyrazole-5-carboxamide] | 0.1 to 50
13 | COc1ccc(C(NCC2CC2)c2ccc(F)c(NC(=O)c3cc(C(F)(F)F)nn3-c3cccc(CN)c3)c2)cc1 (stereo not shown) [142f, 1-(3-(aminomethyl)phenyl)-N-(5-(((cyclopropylmethyl)amino)(4-methoxyphenyl)methyl)-2-fluorophenyl)-3-(trifluoromethyl)-1H-pyrazole-5-carboxamide] | 0.1 to 50
